# Values quoted from earlier work as cited in paper PMC9722229 (European journal of pharmacology, 2019).
# By UniProt entry, the sequences of proteins in these tests, tags left out.
# UniProt P23977, whole entry: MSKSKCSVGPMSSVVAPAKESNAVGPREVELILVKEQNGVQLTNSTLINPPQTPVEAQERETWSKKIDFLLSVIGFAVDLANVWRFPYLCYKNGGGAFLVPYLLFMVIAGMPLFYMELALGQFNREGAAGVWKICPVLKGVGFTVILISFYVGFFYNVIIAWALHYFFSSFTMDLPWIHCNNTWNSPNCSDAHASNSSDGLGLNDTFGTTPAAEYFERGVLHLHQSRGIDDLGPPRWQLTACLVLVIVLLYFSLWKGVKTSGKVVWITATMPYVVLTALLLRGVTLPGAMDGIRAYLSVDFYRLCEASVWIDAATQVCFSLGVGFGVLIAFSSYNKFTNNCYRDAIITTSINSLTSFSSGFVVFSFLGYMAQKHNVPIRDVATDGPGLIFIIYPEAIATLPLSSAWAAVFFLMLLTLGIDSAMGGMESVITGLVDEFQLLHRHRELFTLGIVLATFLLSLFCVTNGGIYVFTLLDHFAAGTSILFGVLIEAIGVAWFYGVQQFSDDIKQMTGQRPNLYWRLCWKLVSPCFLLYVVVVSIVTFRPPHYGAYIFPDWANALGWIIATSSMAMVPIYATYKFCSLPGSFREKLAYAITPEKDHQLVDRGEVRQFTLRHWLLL
# Target: DAT (Rattus norvegicus, UniProt P23977)
# Conditions: read-out: DAT uptake, Ki, [3H]DA; rat brain synaptosomes; ref Dutta et al., 2008; cited from earlier work
smiles,measurement,value
CN(C)CCCN1c2ccccc2CCc2ccccc21 [Imipramine],Ki,1700 nM
